Source: patent US8748182B2, “Mutant proteins and methods for producing them” (Heptares Therapeutics Limited, priority 2007, dated 2014)

Sequences of proteins named here, by UniProt entry; tags and fusion partners are left off.
UniProt P29274, whole entry A54L/T88A/K122A/V239A: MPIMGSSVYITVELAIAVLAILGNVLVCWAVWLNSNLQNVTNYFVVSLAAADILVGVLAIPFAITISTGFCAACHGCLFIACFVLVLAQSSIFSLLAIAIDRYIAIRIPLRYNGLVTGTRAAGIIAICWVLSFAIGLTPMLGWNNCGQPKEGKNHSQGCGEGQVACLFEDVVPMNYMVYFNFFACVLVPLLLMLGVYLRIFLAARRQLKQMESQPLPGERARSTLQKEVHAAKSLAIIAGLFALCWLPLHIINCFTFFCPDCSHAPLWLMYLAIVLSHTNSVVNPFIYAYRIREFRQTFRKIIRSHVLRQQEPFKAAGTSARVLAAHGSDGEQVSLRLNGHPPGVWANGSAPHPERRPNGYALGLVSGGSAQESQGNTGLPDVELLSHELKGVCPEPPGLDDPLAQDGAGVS

Experiments:
[1] = target: wild-type A2aR (Homo sapiens, UniProt P29274); test: Competition assay against [3H]ZM241385, detergent-solubilised wild-type A2aR; conditions: read-out: Ki (M) wt; [3H]ZM241385 10 nM, 1 h on ice, […] DDM, 400 mM NaCl; Cheng-Prusoff
[2] = target: thermo-stable mutant Rant 21 (A2aR) (Homo sapiens, UniProt P29274, A54L/K122A/T88A/V239A); test: Competition assay against [3H]ZM241385, detergent-solubilised mutant Rant 21; conditions: read-out: Ki (M) Rant 21; [3H]ZM241385 10 nM, 1 h on ice, […] DDM, 400 mM NaCl; Cheng-Prusoff

- Ki [1]: 1.6e-05 M
- Ki [2]: 0.0036 M
Substance: R-PIA
